Source: the NIST ThermoML archive (doi:10.1021/je100897y)
Numbers after ± are expanded uncertainties.

Columns and labels:
[1] = 298.15 K; 101.33 kPa; Liquid
[2] = excess molar enthalpy (molar enthalpy of mixing); xn = mol fraction of the nth substance listed; conditions: 298.15 K, 101 kPa, Liquid, Flow calorimetry

Row | mass density [1] | excess molar enthalpy ([2]; x1 = 0.05) | excess molar enthalpy ([2]; x1 = 0.0998) | excess molar enthalpy ([2]; x1 = 0.1502) | excess molar enthalpy ([2]; x1 = 0.2) | excess molar enthalpy ([2]; x1 = 0.25) | excess molar enthalpy ([2]; x1 = 0.3) | excess molar enthalpy ([2]; x1 = 0.3499) | excess molar enthalpy ([2]; x1 = 0.4) | excess molar enthalpy ([2]; x1 = 0.4502) | excess molar enthalpy ([2]; x1 = 0.4998) | excess molar enthalpy ([2]; x1 = 0.5498) | excess molar enthalpy ([2]; x1 = 0.6002) | excess molar enthalpy ([2]; x1 = 0.6499) | excess molar enthalpy ([2]; x1 = 0.7) | excess molar enthalpy ([2]; x1 = 0.7501) | excess molar enthalpy ([2]; x1 = 0.8) | excess molar enthalpy ([2]; x1 = 0.85) | excess molar enthalpy ([2]; x1 = 0.9) | excess molar enthalpy ([2]; x1 = 0.95) | SMILES
1 | 763.806 ± 0.33 kg/m3 | – | – | – | – | – | – | – | – | – | – | – | – | – | – | – | – | – | – | – | CCCCOCCCC [dibutyl ether]
2 | – | 0.0788 ± 0.002 kJ/mol | 0.144 ± 0.0025 kJ/mol | 0.198 ± 0.0031 kJ/mol | 0.243 ± 0.0035 kJ/mol | 0.279 ± 0.0039 kJ/mol | 0.306 ± 0.0042 kJ/mol | 0.325 ± 0.0044 kJ/mol | 0.337 ± 0.0046 kJ/mol | 0.342 ± 0.0046 kJ/mol | 0.339 kJ/mol | 0.332 ± 0.0045 kJ/mol | 0.318 ± 0.0044 kJ/mol | 0.298 ± 0.0041 kJ/mol | 0.273 ± 0.0038 kJ/mol | 0.24 ± 0.0035 kJ/mol | 0.204 ± 0.0031 kJ/mol | 0.162 ± 0.0026 kJ/mol | 0.112 ± 0.0021 kJ/mol | 0.0595 ± 0.0016 kJ/mol | CCCCOCCCC [dibutyl ether] + C1CCOC1
